Data published in paper PMC5454392, “Selective BET bromodomain inhibition as an antifungal therapeutic strategy” (Nature Communications, 2017).

Target: T1, CaBdf1 BD1 (Candida albicans, UniProt Q5A4W8)
T1 construct: made in house; host or cells: E. coli BL21(DE3)
T1 sequence (Q5A4W8 whole entry, looked up): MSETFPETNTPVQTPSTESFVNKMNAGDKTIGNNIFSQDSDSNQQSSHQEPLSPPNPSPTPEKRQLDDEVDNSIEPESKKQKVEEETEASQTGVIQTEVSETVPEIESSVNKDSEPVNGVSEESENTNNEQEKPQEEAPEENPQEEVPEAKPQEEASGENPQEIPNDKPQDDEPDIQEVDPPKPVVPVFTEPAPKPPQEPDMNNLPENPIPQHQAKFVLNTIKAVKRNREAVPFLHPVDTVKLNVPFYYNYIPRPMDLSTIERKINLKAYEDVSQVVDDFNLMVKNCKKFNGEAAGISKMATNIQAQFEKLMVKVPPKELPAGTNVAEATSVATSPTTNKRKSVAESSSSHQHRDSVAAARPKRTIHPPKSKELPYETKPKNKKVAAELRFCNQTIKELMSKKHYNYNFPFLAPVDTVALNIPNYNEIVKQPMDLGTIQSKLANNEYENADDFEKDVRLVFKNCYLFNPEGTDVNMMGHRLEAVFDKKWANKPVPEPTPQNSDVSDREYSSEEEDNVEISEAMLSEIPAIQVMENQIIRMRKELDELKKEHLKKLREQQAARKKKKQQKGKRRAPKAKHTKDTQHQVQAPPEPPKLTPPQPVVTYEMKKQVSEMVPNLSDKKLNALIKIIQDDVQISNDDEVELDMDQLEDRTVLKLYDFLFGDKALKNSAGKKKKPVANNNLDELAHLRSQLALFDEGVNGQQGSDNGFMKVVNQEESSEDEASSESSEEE
Type: binding
Settings: normalized array signal; wild-type BD1
Description: In short, arrays were blocked and incubated with 1 μM of purified CaBdf1 BD1 or BD2. Arrays were incubated with recombinant BDs for 2 h at 4 °C in binding buffer (Tris-HCl 50 mM pH 7.4, NP-40 0.1%, NaCl 150 mM, glycerol 10%). […] Assays were performed in duplicate.
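Further: normalized to spotted c-myc peptide positive control signal.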

Sequence | CaBdf1 BD1 Normalized (0 to 100%) WT [%]
A Rme2a T Kac Q T A Rme2a K S T G G K A P R K Q | 0.399
A R T K Q T A R K S pT G G Kac A P R K Q | 2
